Measurements as given in US8716493B2, “Multicyclic compounds and the use thereof” (Cephalon, Inc., priority 2000, dated 2014).
Read-outs that look alike come from different tables or passages of the source.

Sequences of proteins named here, by UniProt entry; tags and fusion partners are left off.
UniProt P09874, whole entry: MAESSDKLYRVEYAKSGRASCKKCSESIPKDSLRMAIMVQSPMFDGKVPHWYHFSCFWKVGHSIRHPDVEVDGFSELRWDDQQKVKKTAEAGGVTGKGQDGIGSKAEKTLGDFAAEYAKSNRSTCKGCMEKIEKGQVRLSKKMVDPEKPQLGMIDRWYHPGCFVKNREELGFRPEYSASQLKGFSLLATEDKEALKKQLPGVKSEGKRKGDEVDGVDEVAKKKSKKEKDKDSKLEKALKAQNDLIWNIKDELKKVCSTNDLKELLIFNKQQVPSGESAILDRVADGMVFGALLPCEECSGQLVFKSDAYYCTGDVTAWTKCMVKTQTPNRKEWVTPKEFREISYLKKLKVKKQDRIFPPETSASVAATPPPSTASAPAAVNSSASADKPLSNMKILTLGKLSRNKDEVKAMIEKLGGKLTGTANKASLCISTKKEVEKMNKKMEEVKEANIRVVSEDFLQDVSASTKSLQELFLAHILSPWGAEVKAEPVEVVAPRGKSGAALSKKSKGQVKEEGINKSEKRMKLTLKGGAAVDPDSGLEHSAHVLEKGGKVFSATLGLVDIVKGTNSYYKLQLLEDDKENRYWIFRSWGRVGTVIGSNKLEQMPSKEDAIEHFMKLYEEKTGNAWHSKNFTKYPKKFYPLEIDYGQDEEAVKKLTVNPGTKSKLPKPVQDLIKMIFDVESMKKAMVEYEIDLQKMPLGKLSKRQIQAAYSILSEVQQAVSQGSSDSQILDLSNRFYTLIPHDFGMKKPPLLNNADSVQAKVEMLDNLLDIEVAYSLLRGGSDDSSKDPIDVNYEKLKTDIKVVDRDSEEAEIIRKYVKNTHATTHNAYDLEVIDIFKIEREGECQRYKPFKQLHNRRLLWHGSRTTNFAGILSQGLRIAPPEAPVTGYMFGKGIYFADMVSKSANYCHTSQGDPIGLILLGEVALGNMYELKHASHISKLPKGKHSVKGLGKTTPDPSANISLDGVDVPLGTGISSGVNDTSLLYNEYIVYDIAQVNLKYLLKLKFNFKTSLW

Molecular target: recombinant human PARP (Homo sapiens, UniProt P09874)
Assay: Measurement of PARP enzymatic activity (transfer of radiolabeled ADP-ribose from NAD+ to protein acceptor)
Assay type: biochemical
Settings: read-out: PARP IC50

## NCCC(=O)NCc1ccc2[nH]c3c4c(c5c(c3c2c1)C(=O)NC5=O)CCC4
Table 2
  IC50: 0.075 µM

## O=C1CCN(C(=O)c2ccc3[nH]c4c5c(c6c(c4c3c2)C(=O)NC6=O)CCC5)CC1
Table 2
  IC50: 0.014 µM

## O=C1c2c3c(c4[nH]c5ccccc5c4c2C(=O)N1CCCOCc1ccccc1)CCC3
Table 1
  IC50: 0.72 µM

## O=C1NC(=O)c2c1c1c(c3[nH]c(Br)c(Br)c23)CCC1
Table 4
  IC50: 0.02 µM

## C[N+](C)(C)Cc1ccc2[nH]c3c4c(c5c(c3c2c1)C(=O)NC5=O)CCC4
Table 2
  IC50: 0.073 µM

## O=Cc1ccc2[nH]c3c4c(c5c(c3c2c1)C(=O)NC5=O)CCC4
Table 2
  IC50: 0.029 µM

## O=C1c2c3c(c4[nH]c5ccccc5c4c2C(=O)N1CO)CCC3
Table 3
  IC50: 0.138 µM

## O=C(NCCc1c[nH]cn1)c1ccc2[nH]c3c4c(c5c(c3c2c1)C(=O)NC5=O)CCC4
Table 2
  IC50: 0.015 µM

## NCCCC[C@H](N)C(=O)N1C(=O)c2c3c(c4[nH]c5ccc(F)cc5c4c2C1=O)CCC3
Table 3, tested form: 2 HCl
  IC50: 0.048 µM

## COC(=O)CCCCC(=O)NCc1ccc2[nH]c3c4c(c5c(c3c2c1)C(=O)NC5=O)CCC4
Table 2
  IC50: 0.062 µM
